Assay results reported in ChEMBL document CHEMBL2176916, “Mimicking the intramolecular hydrogen bond: synthesis, biological evaluation, and molecular modeling of benzoxazines and quinazolines as potential antimalarial agents” (J Med Chem, 2012).

System: Potassium voltage-gated channel subfamily H member 2 (Rattus norvegicus)
Assay: Inhibition of rat ERG at 100 nM after 2 to 3 days by patch clamp assay
Details: 0.1 µM; call rule not given here

Which “inhibition (INH)” value does the source give for `Clc1ccc2c(Nc3ccc4c(c3)NCN(Cc3ccccc3)C4)ccnc2c1` here?
Its value is “Not Active”.
